{
  "source": "patent US20050250726A1",
  "about": "“Immunostimulatory nucleic acid for treatment of non-allergic inflammatory diseases” (University of Iowa Research Foundation, priority 2001, published 2005)",
  "tested_on": "YAC-1 target cells",
  "experiment": "NK cytotoxicity assay, 4-h 51Cr-release against YAC-1 target cells",
  "type": "cell-based, mouse",
  "details": "B cell-depleted C57BL/6 spleen cells, 18 h; IL-2 100 U/mL, ODN 1585 5 μg/mL, SC-58236 0.25 μg/mL, PGE2 0.1 μg/mL; 1 LU = 30% 51Cr release",
  "description": "Cytotoxicity assay. Spleen cells from C57BL/6 mice were depleted of B cells using paramagnetic beads coated with goat anti-mouse Ig as previously described. Ballas Z K et al. (1990) J Immunol 145:1039-45; Ballas Z K et al. (1993) J Immunol 150:17-30. […] […] Cultures were harvested at 18 h and the cells were used as effectors in a standard 4-h ^51Cr-release assay against YAC-1 target cells labeled with Na^51CrO4 (Amersham Life Science, Arlington Heights, Ill.) as described previously. Ballas Z K et al. (1990) J Immunol 145:1039-45; Ballas Z K et al. (1993) J Immunol 150:17-30; Ballas Z K et al. (1990) J Allergy Clin Immunol 85:453-39. One lytic unit (LU) was defined as the number of the cells needed to exert 30% specific lysis.\nCOX inhibitors augment the cytotoxic activity of NK cells. It has previously been reported that certain CpG DNA sequences can elicit strong lytic activity in NK cells (Ballas Z K et al. (1996) J Immunol 157:1840-45), whereas exogenous PGE2 is known to inhibit the activity of NK cell killing (Kanar M C et al. (1988) J Clin Immunol 8:69-79; Young M R et al. (1986) J Natl Cancer Inst 77:425-29). B cell-depleted murine spleen cells were stimulated with the stimulatory ODN 1585 in the presence or absence of a COX inhibitor. […] Similar data were obtained using the non-selective COX-inhibitor, piroxicam.",
  "data": [
    {"substance": "IL-2: interleukin-2, positive stimulus at 100 U/mL", "values": [
      {"measurement": "NK activity, Mouse Spleen Cells (LU/10^6)", "result": 13.9, "unit": "LU/10^6"}
    ]}
  ]
}
